Measurements reported in publication PMC10040144 (ACS infectious diseases, 2022).

Amino acid sequences for entries named in this document (tags omitted). A change or cut given only in a name is not applied to a line headed by its entry.
UniProt P0AD68: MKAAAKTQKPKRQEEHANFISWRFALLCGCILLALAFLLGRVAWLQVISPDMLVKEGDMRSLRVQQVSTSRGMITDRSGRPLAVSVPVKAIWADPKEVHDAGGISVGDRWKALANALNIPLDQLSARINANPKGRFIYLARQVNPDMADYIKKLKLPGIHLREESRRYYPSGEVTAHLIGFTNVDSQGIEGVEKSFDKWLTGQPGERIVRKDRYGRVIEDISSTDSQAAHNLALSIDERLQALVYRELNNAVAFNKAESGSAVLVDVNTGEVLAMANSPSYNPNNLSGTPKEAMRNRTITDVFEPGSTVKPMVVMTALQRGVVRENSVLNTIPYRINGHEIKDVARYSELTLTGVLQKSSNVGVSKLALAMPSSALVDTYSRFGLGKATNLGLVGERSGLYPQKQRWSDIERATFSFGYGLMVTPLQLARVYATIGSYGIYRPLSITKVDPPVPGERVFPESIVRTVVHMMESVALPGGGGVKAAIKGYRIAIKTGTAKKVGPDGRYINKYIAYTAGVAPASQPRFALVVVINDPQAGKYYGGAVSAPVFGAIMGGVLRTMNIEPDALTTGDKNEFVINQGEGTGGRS
UniProt P0AD65: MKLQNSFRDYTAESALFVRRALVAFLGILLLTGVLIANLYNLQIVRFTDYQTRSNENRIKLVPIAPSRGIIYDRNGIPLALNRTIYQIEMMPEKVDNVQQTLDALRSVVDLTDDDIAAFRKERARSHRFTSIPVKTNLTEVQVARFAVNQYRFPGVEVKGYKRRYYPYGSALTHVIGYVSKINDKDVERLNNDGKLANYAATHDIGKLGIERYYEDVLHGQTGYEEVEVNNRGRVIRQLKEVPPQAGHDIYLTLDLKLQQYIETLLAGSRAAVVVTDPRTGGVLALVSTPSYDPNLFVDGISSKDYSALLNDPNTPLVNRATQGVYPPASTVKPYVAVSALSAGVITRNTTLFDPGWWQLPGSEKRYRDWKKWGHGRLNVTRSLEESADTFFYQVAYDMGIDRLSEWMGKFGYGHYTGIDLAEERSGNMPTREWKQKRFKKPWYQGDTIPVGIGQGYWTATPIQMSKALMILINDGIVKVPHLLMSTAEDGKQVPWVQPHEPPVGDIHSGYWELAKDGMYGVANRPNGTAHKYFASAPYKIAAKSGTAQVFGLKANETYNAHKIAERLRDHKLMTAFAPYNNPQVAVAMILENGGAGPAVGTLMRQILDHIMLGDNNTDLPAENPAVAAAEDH

Columns and labels:
[1] = biological target: PBP3 (Escherichia coli, UniProt P0AD68)
[2] = biological target: PBP2 (Escherichia coli, UniProt P0AD65); assay type: cell-based, Escherichia coli MG1655

CC1=C(C(=O)O)N2C(=O)[C@@H](NC(=O)[C@H](N)c3ccccc3)[C@H]2SC1 [cephalexin]
IC50 [1]: 210 ± 88 µM
IC50 [2]: 34 ± 12 µM
